{"sequences": {"note": "Protein sequences, listed by entry. Tags and fused reporters are not part of them.", "UniProt P81908, whole entry": "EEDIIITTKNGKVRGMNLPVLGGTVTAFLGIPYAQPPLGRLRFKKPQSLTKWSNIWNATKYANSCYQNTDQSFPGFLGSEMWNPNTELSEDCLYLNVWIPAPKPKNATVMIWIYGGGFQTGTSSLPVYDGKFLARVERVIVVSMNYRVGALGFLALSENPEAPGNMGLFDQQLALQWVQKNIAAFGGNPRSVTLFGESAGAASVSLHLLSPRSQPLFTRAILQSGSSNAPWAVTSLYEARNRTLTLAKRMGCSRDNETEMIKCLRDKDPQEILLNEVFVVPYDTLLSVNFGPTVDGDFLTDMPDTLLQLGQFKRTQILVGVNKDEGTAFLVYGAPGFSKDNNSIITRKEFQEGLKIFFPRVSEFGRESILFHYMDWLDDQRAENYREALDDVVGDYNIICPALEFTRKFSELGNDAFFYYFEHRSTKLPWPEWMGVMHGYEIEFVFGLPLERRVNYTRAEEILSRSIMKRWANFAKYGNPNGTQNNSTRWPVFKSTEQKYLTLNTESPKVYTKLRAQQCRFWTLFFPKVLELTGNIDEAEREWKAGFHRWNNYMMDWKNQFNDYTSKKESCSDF"}, "source": "BindingDB's records for doi:10.1016/j.bmc.2016.07.043", "about": "(University of Malaya, 2016)", "molecular_target": "Cholinesterase (Equus caballus, UniProt P81908)", "assay": "Inhibition of equine serum BChE preincubated for 15 mins followed by addition of S-butyrylthiocholine chloride as substrate measured after 30 mins by Ellman's microplate assay", "data": [{"smiles": "CNC(=O)Oc1ccc2c(c1)[C@]1(C)CCN(C)[C@@H]1N2C", "values": [{"measurement": "IC50", "value": 0.58, "unit": "µM"}]}]}
